Laboratory results published in article PMC3819908 (Journal of molecular biology, 2011).

Experiment: Thermostability assay of detergent-solubilised receptors expressed in E. coli
Type: physicochemical, turkey
Conditions: in the absence of Zn^2+

B1: His142 and His285: double histidine mutant of the wild type β1AR for a Zn^2+-bridge (protein, UniProt P07700 1-483, looked up, variant A142H E285H)
Beta-1 adrenergic receptor: MGDGWLPPDCGPHNRSGGGGATAAPTGSRQVSAELLSQQWEAGMSLLMALVVLLIVAGNVLVIAAIGRTQRLQTLTNLFITSLACADLVMGLLVVPFGATLVVRGTWLWGSFLCECWTSLDVLCVTASIETLCVIAIDRYLHITSPFRYQSLMTRARAKVIICTVWAISALVSFLPIMMHWWRDEDPQALKCYQDPGCCDFVTNRAYAIASSIISFYIPLLIMIFVYLRVYREAKEQIRKIDRCEGRFYGSQEQPQPPPLPQHQPILGNGRASKRKTSRVMAMRHHKALKTLGIIMGVFTLCWLPFFLVNIVNVFNRDLVPDWLFVFFNWLGYANSAFNPIIYCRSPDFRKAFKRLLCFPRKADRRLHAGGQPAPLPGGFISTLGSPEHSPGGTWSDCNGGTRGGSESSLEERHSKTSRSESKMEREKNILATTRFYCTFLGNGDKAVFCTVLRIVKLFEDATCTCPHTHKLKMKWRFKQHQA
decrease in stability relative to the wild type receptor: 4 °C
